Experiments:
BACE1 [1] = target: T1, BACE1 (Homo sapiens, UniProt P56817); assay: In Vitro Enzymatic BACE FRET (Fluorescence Resonance Energy Transfer) Assay; format: biochemical; details: BACE1 FRET assay (uM), in vitro BACE FRET enzyme assay, IC50 class symbols
Procedure: In Vitro Enzymatic BACE FRET (Fluorescence Resonance Energy Transfer) Assay (Enzyme Assay Data in the Example Tables I, II, III & IV) The assay buffer used in this screen is 0.05 M acetate, pH 4.2, 10% DMSO final, 100 uM genapol (which is a nonionic detergent, below its Critical Micelle Concentration). […] This assay is effectively started by the addition of FRET substrate (50 nM) and the combination is incubated for one hour. The FRET assay is terminated with by addition of Tris buffer, which raises the pH to neutrality, and the fluorescence is determined. The FRET substrate is a peptide with commercially available fluorophore and quencher, on opposite sides of the BACE cleavage site. […]

Amino acid sequences for entries named in this document (tags omitted). Residues count along the entry.
UniProt P56817, 46-501, species assumed: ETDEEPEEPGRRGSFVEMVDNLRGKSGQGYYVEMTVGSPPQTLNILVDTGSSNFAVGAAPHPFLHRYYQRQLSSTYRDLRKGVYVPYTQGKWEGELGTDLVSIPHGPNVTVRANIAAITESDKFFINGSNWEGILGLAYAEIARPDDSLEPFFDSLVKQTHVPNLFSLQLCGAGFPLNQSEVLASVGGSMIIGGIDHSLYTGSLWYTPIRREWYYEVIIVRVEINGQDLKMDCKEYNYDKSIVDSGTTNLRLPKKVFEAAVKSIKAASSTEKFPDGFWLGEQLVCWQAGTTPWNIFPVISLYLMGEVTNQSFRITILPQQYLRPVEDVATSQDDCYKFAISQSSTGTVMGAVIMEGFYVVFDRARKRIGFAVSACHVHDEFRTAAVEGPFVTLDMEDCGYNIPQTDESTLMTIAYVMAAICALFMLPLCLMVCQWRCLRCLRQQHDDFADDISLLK

BACE1 [2] = target: T1, BACE1; assay: In Vitro BACE Cell-based Assay (HEK cell assay): Aβ40 in conditioned medium of cells stably expressing Amyloid Precursor Protein, sandwich ELISA; details: HEK cell assay (uM), IC50 class symbols
Procedure: In Vitro BACE Cell-based Assay
The cell-based assay measures inhibition or reduction of Aβ40 in conditioned medium of test compound treated cells expressing amyloid precursor protein.
Cells stably expressing Amyloid Precursor Protein (APP) were plated at a density of 40K cells/well in 96 well plates (Costar). The cells were cultivated for 24 hours at 37° C. and 5% CO2 in DMEM supplemented with 10% FBS. The test compounds were then added to cells in 10-point dose response concentrations with the starting concentration being either 100 μM or 10 μM. The compounds were diluted from stock solutions in DMSO and the final DMSO concentration of the test compounds on cells was 0.1%. After 24 h of incubation with the test compounds the supernatant conditioned media was collected and the Aβ 40 levels were determined using a sandwich ELISA. The IC50 of the compound was calculated from the percent of control or percent inhibition of Aβ 40 as a function of the concentration of the test compound. […]
Cellular supernatants were incubated with the capture antibody for 3 h at 4° C., followed by 3 wash steps in TBS-tween (0.05%). […] The final readout of the ELISA is Time-Resolved Fluorescence (counts per minute) using Delfia reagents Streptavidin-Europium and Enhancement solutions (Perkin Elmer) and the Victor 2 multilabel counter (Perkin Elmer).

NC1=N[C@@]2(CO1)c1cc(-c3cccnc3F)ccc1Oc1cnc([C@H]3CCCCO3)cc12 [compound 370]
IC50 (BACE1 [1]): < 0.1 µM | IC50 (BACE1 [2]): < 0.1 µM

Reference: patent publication US8426447B2, “Spiro-tricyclic ring compounds as beta-secretase modulators and methods of use” (Amgen Inc., priority 2008, dated 2013)
